Antibody variant affinities, Ab-95 light chain, assay 2

From the AlphaSeq antibody data of Engelhart et al. 2022 (doi:10.1038/s41597-022-01779-4), copy in the FLAb collection.

Binding partner: SARS-CoV-2 spike HR2 peptide, sequence PDVDLGDISGINAS.

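The library (AAYL52) carries one to three amino acid substitutions per variant, with no insertions or deletions. In AlphaSeq, yeast of one mating type display the scFv and yeast of the other type display the target. Pairs that bind mate more often; barcode pairs of the diploids are counted by sequencing. Each replicate has its own calibration line, from reference interactions of the BCL2 family. Each pool was mated in three replicate cultures.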

Parent scFv Ab-95: VH joined to VL by a 15-residue (Gly4Ser)3 linker. Changes lie in the light chain CDRs alone.
VH: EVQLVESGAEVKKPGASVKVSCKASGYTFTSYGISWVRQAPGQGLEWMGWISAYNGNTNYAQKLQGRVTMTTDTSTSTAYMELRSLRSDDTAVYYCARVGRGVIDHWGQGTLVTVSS
VL: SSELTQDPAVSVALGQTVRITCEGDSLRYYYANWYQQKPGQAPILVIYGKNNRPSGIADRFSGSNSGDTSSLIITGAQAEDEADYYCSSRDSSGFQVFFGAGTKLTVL

Each variant is given by its three light chain CDRs, as the data file delimits them; those of the parent are EGDSLRYYYAN, GKNNRPS, SSRDSSGFQVF. All variants listed here change E23 of the VL, counted from its first residue. Values are apparent Kd, the geometric mean of the replicates that gave a signal; lower means stronger binding. A pair that was not seen in any replicate is written "nd"; this usually means weak binding, but a binder can also be missed. Empty control strains, which show no peptide, gave a signal in 28% of pairings with library AAYL52; the median was 8.2 µM and 95% of these signals were weaker than 800 nM. No background was subtracted.

For MGDSLRYYYAN / GKNNRPS / SSPDSSGFQVF, the assay gave 240 nM (3 of 3 replicates). For HGDSLRYYYAN / GKNNRPE / SSRDSSGFQVV, the assay gave 210 nM (3 of 3 replicates). Variant YGDSLRYYYAM / GKNNRPS / SSRDSLGFQVF showed 29 µM (1 of 3 replicates). For SGDSLRYYYAN / GKNNRPS / MYRDSSGFQVF, the assay gave 34 µM (2 of 3 replicates). Variant NGDSLRYYYAN / GKPNRPS / SSRDSSGFAVF gave 4.3 µM (3 of 3 replicates).

For YGDSLRYYPAF / GKNNRPS / SSRDSSGFQVF, the assay gave 31 µM (1 of 3 replicates). Variant LGDSLRYYYAN / GHNNRPS / SSRDSSGFQKF gave 8.1 µM (3 of 3 replicates). For YGDSLRYYYAD / GKNNEPS / SSRDSSGFQVF, the assay gave 4.5 µM (3 of 3 replicates). With FGDSLRYYYAN / GKNNRPS / SSRRSSGFNVF the result was 2.1 µM (2 of 3 replicates). With AGDSLRYYYAN / GKANRPS / SSRDSYGFQVF the result was 5.1 µM (3 of 3 replicates).

With DGDSLRYYYAN / SKNNRPM / SSRDSSGFQVF the result was nd (0 of 3 replicates). Variant WGDSLRYIYAN / GKNNRPS / SSRDYSGFQVF gave 1.3 µM (3 of 3 replicates). For FGDSIRYYYAN / GKNNRPL / SSRDSSGFQVF, the assay gave 130 µM (2 of 3 replicates). Variant PGDSLRYPYAN / GKNNRPI / SSRDSSGFQVF showed 2.4 µM (2 of 3 replicates). Variant SGDSLRYYYAN / GKNNRPS / SSRDTSGNQVF showed 500 nM (3 of 3 replicates).

Variant IGDSLRYYYAN / GKNLRPS / GSRDSSGFQVF showed 340 nM (3 of 3 replicates). Variant DGDSLRYYYAN / GKNNRPS / SSRPSSGFQVF showed 190 nM (3 of 3 replicates). Variant SGDSLRYYGAN / GKNNRQS / SSRDSSGFQVF gave 79 nM (3 of 3 replicates). With QGDSLRYYYAN / IKINRPS / SSRDSSGFQVF the result was nd (0 of 3 replicates). With MGDSLRYYYAN / GKLNRPS / SSRDSFGFQVF the result was 85 µM (1 of 3 replicates).

With DGDSLRYYYAN / VKNNRPS / SSRDSSGFQVD the result was 1.4 µM (1 of 3 replicates). Variant FGDSLRYYYAN / GKNNRPS / DSRDSVGFQVF gave 210 nM (3 of 3 replicates). For NGDSLRYYYAN / TKNNRPS / SKRDSSGFQVF, the assay gave 39 µM (1 of 3 replicates). Variant MGDSLRYYYAN / GKNNRPS / SSRDASGFQVR showed 510 nM (3 of 3 replicates). Variant PGDSLRYYYAN / GKNNRPS / SSRSSSGFQFF gave 21 µM (3 of 3 replicates).

Variant KGDSLYYYYAN / GKNNRPS / SSRDSCGFQVF showed 18 µM (3 of 3 replicates). Variant VGDSLRYYYVN / GKNNRQS / SSRDSSGFQVF showed 6.9 µM (3 of 3 replicates). For IGDSLRYYYAA / GKNNRTS / SSRDSSGFQVF, the assay gave nd (0 of 3 replicates). For GGDSLRYYYAN / GKNNRPG / SSRDISGFQVF, the assay gave 130 nM (3 of 3 replicates). Variant HGDSLRYYYAN / GKNPRPS / SSRRSSGFQVF showed 5.2 µM (1 of 3 replicates).

For LGDSLRYYAAN / CKNNRPS / SSRDSSGFQVF, the assay gave 160 nM (3 of 3 replicates). Variant SGDSLRYIYAN / GKNNRQS / SSRDSSGFQVF gave 4.5 µM (2 of 3 replicates). Variant GGDSLRYCYTN / GKNNRPS / SSRDSSGFQVF gave 460 nM (3 of 3 replicates). For TGDSLRYYYAN / GCNNIPS / SSRDSSGFQVF, the assay gave 9.8 µM (2 of 3 replicates).

Extract of 5 entries:

CDR-L1	CDR-L2	CDR-L3	Kd (apparent)	replicates with signal
FGDSLRYYYAN	GKNNRPS	DSRDSVGFQVF	210 nM	3 of 3
YGDSLRYYYAM	GKNNRPS	SSRDSLGFQVF	29 µM	1 of 3
PGDSLRYYYAN	GKNNRPS	SSRSSSGFQFF	21 µM	3 of 3
SGDSLRYYGAN	GKNNRQS	SSRDSSGFQVF	79 nM	3 of 3
HGDSLRYYYAN	GKNPRPS	SSRRSSGFQVF	5.2 µM	1 of 3

For reference, the parent read 200 nM as the reference entry and 180 nM as a member of this library.